Key:
[1] = system: C3H/10T1/2 cells; test: Oil red O staining of C3H/10T1/2 cells; format: cell-based, mouse; conditions: for Experiment B (+BRL + Insulin) % differentiated cells / Experiment A (+BRL) % differentiated cells: 7 days
[2] = system: LPL (lipoprotein lipase) mRNA and PPARγ mRNA; test: Northern blot analysis of adipocyte specific genes in 3T3-LI cells; format: cell-based, mouse; conditions: 3T3-LI treated for 7 days; BRL 49653 1 μM, LG 100268 1 μM, insulin 0.01 mg/ml

CN(CCOc1ccc(CC2SC(=O)NC2=O)cc1)c1ccccn1 (stereo not shown) [BRL 49653, 5-[[4-[2-(methyl-2-pyridinylamino)ethoxy]phenyl]methyl]-2,4-thiazolidinedione]
Experiment B (+BRL + Insulin) % differentiated cells ([1]; BRL 0.1 μM + insulin 0.01 mg/ml, alone or plus ALRT 1057 1 μM or LGD 1069 1 μM): 60%
Experiment A (+BRL) % differentiated cells ([1]; BRL 0.1 μM alone or plus ALRT 1057 1 μM, LGD 1069 1 μM or TTNPB 10 nM): 5%
Experiment B (+BRL + Insulin) % differentiated cells ([1]; BRL 1 μM + insulin 0.01 mg/ml): 80%
Experiment A (+BRL) % differentiated cells ([1]; BRL 1 μM): 8%
Experiment B (+BRL + Insulin) % differentiated cells ([1]; BRL 10 μM + insulin 0.01 mg/ml, alone or plus ALRT 1057 1 μM, LGD 1069 1 μM or TTNPB 10 nM): 80%
Experiment A (+BRL) % differentiated cells ([1]; BRL 10 μM alone or plus ALRT 1057 1 μM, LGD 1069 1 μM or TTNPB 10 nM): 10%
cells undergoing adipocyte differentiation ([1]; BRL 49653 alone): no more than 10%
Experiment B (+BRL + Insulin) % differentiated cells ([1]; middle group r17-r20, headed BRL (0.1 μM), + insulin 0.01 mg/ml, alone or plus ALRT 1057 1 μM, LGD 1069 1 μM or TTNPB 10 nM): 80%
Experiment A (+BRL) % differentiated cells ([1]; middle group r17-r20, headed BRL (0.1 μM), alone or plus ALRT 1057 1 μM, LGD 1069 1 μM or TTNPB 10 nM): 8%
LPL and PPARγ mRNA levels, relative signal normalized to β-actin [2]: three to five fold increase

From patent US6521633B2, “Treating NIDDM with RXR agonists” (Ligand Pharmaceuticals Incorporated, priority 1995, dated 2003)
